# According to patent US6355608B1, “Detergent composition” (Shiseido Co., Ltd., priority 1998, dated 2002):
# Test: Measurement of the Krafft point (differential scanning calorimeter)
# Assay type: physicochemical
substance,measurement,setting,value
Triethanolamine hydroxylaurate,Physical state,at room temperature,liquid at room temperature
same,Krafft point (in words),compared with the salts of the invention,lower Krafft points
